In PubChem BioAssay AID720506 (National Center for Advancing Translational Sciences (NCATS), 2013):
Only a part is listed here, and it is no random draw. Inconclusive results are not listed. Active and inactive are the calls of the source. The call rests on the fitted dose curve; in most records, active means well fitted activation curve with a large enough effect; inconclusive means small, poorly fitted or top-dose-only effect; inactive means flat fitted curve, though single readings scatter.

Amino acid sequences for entries named in this document (tags omitted).
UniProt P35462, whole entry, looked up: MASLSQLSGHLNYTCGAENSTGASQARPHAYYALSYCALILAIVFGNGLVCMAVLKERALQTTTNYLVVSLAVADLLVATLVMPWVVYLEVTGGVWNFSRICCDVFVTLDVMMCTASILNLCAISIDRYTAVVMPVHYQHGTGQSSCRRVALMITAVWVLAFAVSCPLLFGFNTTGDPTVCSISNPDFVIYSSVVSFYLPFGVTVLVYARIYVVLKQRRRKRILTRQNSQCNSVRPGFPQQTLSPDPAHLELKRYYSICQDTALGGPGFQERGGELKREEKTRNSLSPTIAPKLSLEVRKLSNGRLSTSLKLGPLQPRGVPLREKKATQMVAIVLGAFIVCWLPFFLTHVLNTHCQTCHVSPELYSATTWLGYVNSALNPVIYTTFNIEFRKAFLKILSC

Target: D(3) dopamine receptor (Homo sapiens) (UniProt P35462)
Assay: qHTS of D3 Dopamine Receptor Agonist: D3 Dopamine Receptor B-arrestin Agonist Confirmatory Assay;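 further: 100% = dopamine control response; nearly all actives have a fitted effect of over 70% in size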
Conditions: DiscoveRx D3 beta-arrestin cells, luminescence, 90 min; at 76.9 µM (top of the series)
From the text: D3 DARs represent a very important target for the treatment of several neuropsychiatric disorders. Indeed, one of the most promising therapeutic applications for the D3 DAR is in the area of addiction and related disorders. […] These findings have been observed with a number of addictive substances including cocaine, amphetamine, nicotine, and alcohol. […] Increased D3 DAR activity can thus lead to neuroprotective and neurorestorative actions in the CNS. […] This assay is used to confirm the activity of the identified D3 dopamine receptor agonist. Activation is the desired outcome for this assay. NIH Molecular Libraries Probe Production Centers Network [MLPCN] NIH Chemical Genomics Center [NCGC] MLPCN Grant: NS064831 Assay Submitter (PI): David Sibley
Freshly passaged DiscoveRx D3 cells are plated in 1536 well white, solid bottom plates at a density of 1500 cells/well in 3microl of complete media. After an overnight incubation at 37 degrees C in 5% CO2, cells are loaded with 23nl of test compound from the compound library (as well as dopamine controls) using a 1536 pintool and incubated at 37 degrees C for 90 minutes. Two microliters of DiscoveRx reagent is then added to all cells, and they are incubated for an additional 30 - 60 minutes at room temperature. Following incubation, luminescence is measured on a ViewLux CCD-based luminometer reader using a 20 sec exposure time.

Q: Which activation does the source give for `Cc1c2c(nc3ccccc13)SC(C(Cl)Cl)C2` (configuration not stated) here?
A: The activation was inactive: 3.45%.

Q: Which activation does the source give for `Cc1ccc2nc3c(c(C)c2c1)CC(C(Cl)Cl)S3` (configuration not stated) here?
A: Its activation is inactive: 6.68%.
